Experimental data as given in ChEMBL document CHEMBL1133089 (J Med Chem, 2000).

Protein sequences, listed by entry. Tags and fused reporters are not part of them. Lines headed by an entry give the natural chain unless they say otherwise; changes in a name come on top.
UniProt P09483: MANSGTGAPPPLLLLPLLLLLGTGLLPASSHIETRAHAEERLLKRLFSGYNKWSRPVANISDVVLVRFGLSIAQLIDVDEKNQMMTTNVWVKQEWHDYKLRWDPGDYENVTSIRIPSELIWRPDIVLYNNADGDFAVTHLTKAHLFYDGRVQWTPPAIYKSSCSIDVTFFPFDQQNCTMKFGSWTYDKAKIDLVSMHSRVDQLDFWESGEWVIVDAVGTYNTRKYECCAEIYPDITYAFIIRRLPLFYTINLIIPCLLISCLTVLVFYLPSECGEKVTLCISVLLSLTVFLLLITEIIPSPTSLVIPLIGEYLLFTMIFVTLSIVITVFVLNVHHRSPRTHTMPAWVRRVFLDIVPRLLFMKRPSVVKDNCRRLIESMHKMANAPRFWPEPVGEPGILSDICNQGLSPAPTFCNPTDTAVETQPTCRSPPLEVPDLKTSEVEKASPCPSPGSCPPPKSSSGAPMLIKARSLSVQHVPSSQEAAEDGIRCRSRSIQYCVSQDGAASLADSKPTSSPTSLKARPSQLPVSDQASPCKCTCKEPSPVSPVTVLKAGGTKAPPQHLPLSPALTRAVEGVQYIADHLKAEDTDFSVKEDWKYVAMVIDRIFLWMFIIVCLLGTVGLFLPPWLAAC
UniProt P12390, whole entry: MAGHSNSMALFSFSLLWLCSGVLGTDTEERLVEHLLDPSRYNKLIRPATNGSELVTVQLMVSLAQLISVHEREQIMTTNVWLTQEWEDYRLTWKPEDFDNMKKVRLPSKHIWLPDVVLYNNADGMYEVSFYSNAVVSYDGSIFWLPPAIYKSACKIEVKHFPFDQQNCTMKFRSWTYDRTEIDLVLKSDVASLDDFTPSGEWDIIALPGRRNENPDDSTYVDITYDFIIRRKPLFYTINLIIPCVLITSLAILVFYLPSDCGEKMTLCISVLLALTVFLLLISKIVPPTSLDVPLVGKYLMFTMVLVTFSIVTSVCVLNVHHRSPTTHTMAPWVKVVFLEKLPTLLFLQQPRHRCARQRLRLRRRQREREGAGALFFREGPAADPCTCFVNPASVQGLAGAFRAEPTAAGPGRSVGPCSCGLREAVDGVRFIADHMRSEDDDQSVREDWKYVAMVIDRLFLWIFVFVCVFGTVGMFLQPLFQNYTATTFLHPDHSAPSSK

Molecular target: Neuronal acetylcholine receptor; alpha4/beta2 (Rattus norvegicus, UniProt P09483+P12390)
Assay: binding affinity in rat forebrain against alpha4-beta2 nicotinic receptor

Row | SMILES | Ki [µM]
1 | O=C1NC[C@@]2(CN3CCC2CC3)O1 | 16
2 | O=C1NCC2(CN3CCC2CC3)O1 (single isomer, unassigned; (+)) | 30
3 | O=C1NCC2(CN3CCC2CC3)O1 (single isomer, unassigned; (-)) | 16
